# Results reported in patent US6410255B1, “Optical probes and assays” (priority 1999, dated 2002).
# Experiments:
# protein kinase A = protein kinase A (Homo sapiens, UniProt P17612); experiment: Protein kinase A inhibitor assay with optical probe; format: biochemical; details: inhibitor 10 μM, ATP 10 μM
# Experimental: […] After one hour incubation at 30 C, chymotrypsin to a final concentration of 0.8 nM was added and the 460/530 ratio was determined after one hour, as described above (Example 6).
# Src kinase = molecular target: T1, Src kinase (Homo sapiens, UniProt P12931); experiment: Src kinase phosphorylation of optical probes; format: biochemical; details: fluorescence after protease incubation; read-out: apparent Km with respect to the Src kinase
# T1 construct: purchased Upstate Biotechnology
# Experimental: To measure Src kinase activity, two optical probes Src-1 ([…], SEQ. ID. NO: 3) and Src-2 ([…], SEQ. ID. NO: 29) were developed. […] In the second substrate, Src-2, the negatively charged amino acid (Glu=E) in the P′2 position with respect to the protease site, was changed to valine (Val=V) to enable more efficient cleavage of the non-phosphorylated optical probe by chymotrypsin. Src kinase (Upstate Biotechnology) reaction conditions were the same as described in Example 1, except 25 mM glycerol phosphate and 1 mM DTT were also added. Incubation of the optical probe with chymotrypsin (100 nM) and measurement of fluorescence emission ratios were as described in Example 1. The apparent Kms for the two substrates, (determined by fluorescence measurements after protease incubation) with respect to the Src kinase were 11 μM and 19 μM respectively. Other optical probes, designed as described herein, can be generated to create specific optical probes for a range of tyrosine kinase activities that can subsequently be optimized using the methods described herein.
Km (Src kinase),Compound,inhibition of protein kinase A activity (protein kinase A)
–,"CN[C@@H]1C[C@H]2O[C@@](C)([C@@H]1OC)n1c3ccccc3c3c4c(c5c6ccccc6n2c5c31)C(=O)NC4 [Staurosporin, staurosporin]",almost complete inhibition
11 µM,"GEEEIYGEIEK (fluorescent label; Optical probe specific motif) [Src-1, fluorescently labeled optical probe for Src kinase]",–
